Source: PubChem BioAssay AID1963498 (Burek Lab, Department of Anaesthesiology, Intensive Care, …, 2024)
The list shows a part of the results, in another mix than the full data. Active and inactive are the calls of the source. No stated cut-off is given here; in the data, active means fold change permeability below about 0.7 or above about 1.3; inactive means in between.

Assay: modulators of brain endothelial barrier permeability, primary screen, cell-based, FITC-avidin fluorescence, HTS (AID 1963498); further: test concentration not given here
Settings: actives lie on both sides

| SMILES | fold change permeability |
| --- | --- |
| CC(C)N1CCC(N(C(=O)Cc2ccccc2)c2ccc(Cl)cc2)CC1 | active: 1.9 |
